This is an account of results in ChEMBL document CHEMBL1140694, “Identification of new functional inhibitors of acid sphingomyelinase using a structure-property-activity relation model” (J Med Chem, 2008).

This data set can be described thus: physchem.

The structures appear in SMILES notation.

Turning to `Cc1cc(C(C)(C)C)cc(C)c1CC1=NCCN1` [XYLOMETAZOLINE], the pKa (in general, the pH at which an ionisable group is half protonated) was 10.2.
